Tests used:
[1] = tested on: peptide-forming enzyme from Empedobacter brevis strain FERM BP-8113; assay: Substrate specificity of enzyme (peptide production from carboxy and amine components); type: biochemical; design: key to Formed peptide (mM): +: those peptides for which production was confirmed but which were unable to be quantified due to the absence of a standard; a trace amount; conditions: 100 mM L-alanine methyl ester hydrochloride, L-amino acid 150 mM, pH 9.0, 25° C., 3 hours
[2] = tested on: peptide-forming enzyme from Empedobacter brevis strain FERM BP-8113; assay: Production of L-alanyl-L-glutamine from L-alanine methyl ester and L-glutamine with the Mono S fraction enzyme; conditions: 100 mM L-alanine methyl ester hydrochloride, 200 mM L-glutamine, 10 mM EDTA, pH 9.0, 18° C., enzyme-added lot
[3] = Comparison of ability to catalyze peptide formation with known enzymes; type: biochemical; conditions: 100 mM L-alanine methyl ester hydrochloride, 200 mM L-glutamine, borate buffer pH 9.0, 25° C.
Source text: The peptide-forming ability of the present enzyme was compared with that of known enzymes. Carboxypeptidase Y described in EP 278787A1 and the thiol endopeptidases (ficin, papain, bromelain, and chymopapain) described in EP 359399B1 were used as the known enzymes, and they were used in the form of purified enzymes (manufactured by Sigma). The enzyme uniformly purified in Example 3 was used as a source of the present enzyme of the present invention. […] As has been described above, the present enzyme was verified to have an extremely high peptide production rate unlike any known enzyme in the prior art. Furthermore, the enzyme of the present invention is a dimer having a molecular weight of about 75,000. In contrast, the molecular weight of the carboxypeptidase Y has been reported to be about 61,000, while the molecular weight of thiol endopeptidase has been reported to be about 23,000 to 36,000. Thus, the L-alanyl-L-glutamine production rate of the enzyme of the present invention as compared to those of the carboxypeptidase Y and the thiol endopeptidase is even greater when the rate is expressed per molecular weight than when it is expressed per unit weight as indicated in the examples.

Substance: L-Ala-L-His
- Formed peptide [1]: 66.9 mM

Substance: L-Ala-L-Ala-L-Gln
- peptide formed [2]: 1.3 mM

Substance: L-Ala-L-Tyr
- Formed peptide [1]: 17.6 mM

Substance: L-Ala-L-Leu
- Formed peptide [1]: 45.3 mM

Substance: L-Ala-L-Lys
- Formed peptide [1]: 71.8 mM

Substance: L-Ala-L-Ile
- Formed peptide [1]: 33.9 mM

Substance: L-Ala-L-CySH
- Formed peptide (mM) [1]: +

Substance: L-Ala-Gly
- Formed peptide [1]: 13.7 mM

Substance: L-Ala-L-Thr
- Formed peptide [1]: 53.9 mM

Substance: L-Ala-L-Asp
- Formed peptide [1]: 2.1 mM

Substance: L-Ala-L-Arg
- Formed peptide [1]: 88.0 mM

Substance: L-Ala-L-Pro
- Formed peptide (mM) [1]: tr

Substance: L-Ala-L-Ser
- Formed peptide [1]: 62.5 mM

Substance: L-Ala-L-Met
- Formed peptide [1]: 83.3 mM

Substance: Bromelain
- L-Ala-L-Gln production rate [3]: 0.0062 mM/min

Substance: Ficin
- L-Ala-L-Gln production rate [3]: 0.0096 mM/min

Substance: L-Ala-L-Glu
- Formed peptide [1]: 42.9 mM

Substance: L-Ala-L-Val
- Formed peptide [1]: 20.8 mM

Substance: Chymopapain: thiol endopeptidase described in EP 359399B1, purified enzyme manufactured by Sigma
- L-Ala-L-Gln production rate [3]: 0.0100 mM/min

Substance: L-Ala-L-Asn
- Formed peptide [1]: 65.5 mM

Substance: L-Ala-L-Trp
- Formed peptide [1]: 53.9 mM

Substance: L-Ala-L-Ala
- Formed peptide [1]: 25.4 mM

Substance: L-Ala-L-Phe
- Formed peptide [1]: 74.4 mM

Source: US8753841B2, “Enzyme that catalyzes a peptide-forming reaction from a carboxy component and an amine component, microbe producing the same, and a method of producing a dipeptide using the enzyme or microbe” (Ajinomoto Co., Inc., priority 2002, dated 2014)
